The record followed here is patent publication US20050113327A1.

Experiment [1] concerns the target Rabbit muscle actin, globular (G-) actin polymerized to filamentous (F-) actin (rabbit) (UniProt P68135). The experiment is described as follows: co-sedimentation of 1-33 µM RNase B1 with 30 µM F-actin; RNase activity of the supernatant; Scatchard analysis.
Experiment [2] shares this target. The experiment is described as follows: co-sedimentation of 1-33 µM RNase B1 with 30 µM F-actin; Scatchard analysis.

As to “Aspergillus niger B1 extracellular RNase (RNase B1) (enzyme)”, the RNase:actin molar ratio (abscissa intercept of Scatchard regression line) in experiment [1] turned out to be 0.45 molar ratio. The actin molecules bound per RNase molecule (actin molecules per RNase molecule) in experiment [2] came to 2.
